Our source for the EC50 values is patent US10117890B2, “Methods and compositions for treating pain” (Academia Sinica, priority 2012, dated 2018).

The assay has as its system muscle nociceptors (ASIC3-positive muscle afferent DRG neurons expressing ISP-O). Description: Whole-cell patch-clamp recording of outward currents in muscle afferent DRG neurons. Format: cell-based, mice. The following applies: peak whole-cell current; 0.1, 1, 3 and 10 μM; n=27; read-out: EC50 of SP-induced outward current (ISP-O). How it is done:
The digested DRG neurons were washed with fetal calf serum (FCS)-free DMEM or DMEM containing 10% FCS during each treatment. Fully digested DRGs were triturated and plated on poly-L-lysine-coated cover slides. Cell cultures were maintained in a 5% CO2 incubator at 37° C.
Whole-cell patch-clamp recordings of muscle-afferent neurons involved use of Axopatch MultiClamp 700B (Axon Instruments). Neurons with membrane potential >−40 mV were discarded. The bridge was balanced in current-clamp recording, and the series resistance was compensated 70% in voltage-clamp recording with […] 700B compensation circuitry. All experiments were performed at room temperature (21-25° C.) and completed within 30 hr post-seeding. Unless specifically mentioned, the patch pipettes were prepared in 1-5 MΩ and filled with internal solution containing (in mM) 100 KCl, 2 Nae-ATP, 0.3 Na3-GTP, 10 EGTA, 5 MgCl2, and 40 HEPES, adjusted to pH 7.4 with KOH. Recording cells were superfused in artificial cerebrospinal fluid (ACSF) by control with gravitational force. The ACSF contained (in mM) 130 NaCl, 5 KCl, 1 MgCl2, 2 CaCl2, 10 glucose, and 20 HEPES, adjusted to pH 7.4 with NaOH. Osmolarity was adjusted to 300 mOsm. The acidic ACSF was titrated to pH 6.8 by […]. […] If not specifically mentioned, drugs listed above were from Sigma Chemical (St. Louis, Mo.). […]
Background: In patch-clamp work, channel activity is measured electrically.

In general, EC50 refers to the concentration that produces a half-maximal response. For the molecule `CSCC[C@H](NC(=O)[C@H](CC(C)C)NC(=O)CNC(=O)[C@H](Cc1ccccc1)NC(=O)[C@H](Cc1ccccc1)NC(=O)[C@H](CCC(N)=O)NC(=O)[C@H](CCC(N)=O)NC(=O)[C@@H]1CCCN1C(=O)[C@H](CCCCN)NC(=O)[C@@H]1CCCN1C(=O)[C@@H](N)CCCNC(=N)N)C(N)=O` [SP, reference compound], the EC50 came to 2600 nM.
